# Laboratory results reported in US6962920B2, “Pyrimidine derivatives and methods of making and using these derivatives” (Duquesne University of the Holy Ghost, priority 1992, dated 2005).
# Amino acid sequences for entries named in this document (tags omitted).
# UniProt Q920D2, whole entry: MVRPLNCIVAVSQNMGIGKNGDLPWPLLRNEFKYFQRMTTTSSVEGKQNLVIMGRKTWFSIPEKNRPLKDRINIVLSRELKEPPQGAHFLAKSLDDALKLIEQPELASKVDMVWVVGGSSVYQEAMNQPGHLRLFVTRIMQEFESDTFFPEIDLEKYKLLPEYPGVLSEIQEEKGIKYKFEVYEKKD
# Where two headings read alike, the source gives them in different places.
# Assays:
# [1] = biological target: RL DHFR (Rattus norvegicus, UniProt Q920D2); assay: Inhibition of DHFR from rat liver; format: biochemical
# [2] = test system: NCI/ADR-RES; assay: NCI in vitro anti-cancer activity, breast cancer; conditions: Table 29, Breast Cancer, NCI/ADRRES
# [3] = test system: NCI-H460; assay: NCI in vitro anti-cancer activity, Non-Small Cell Lung Cancer; format: cell-based; conditions: Table 29, Non-Small Cell Lung Cancer
# [4] = test system: NCI-H522; assay: as above; conditions: Table 29, Non-Small Cell Lung Cancer
# [5] = test system: HOP-92; assay: as above; conditions: Table 29, Non-Small Cell Lung Cancer
# [6] = test system: A549/ATCC; assay: as above; conditions: Table 29, Non-Small Cell Lung Cancer
# [7] = test system: NCI-H226; assay: as above; conditions: Table 29, Non-Small Cell Lung Cancer
# [8] = test system: NCI-H23; assay: as above; conditions: Table 29, Non-Small Cell Lung Cancer
# [9] = test system: EKVX; assay: as above; conditions: Table 29, Non-Small Cell Lung Cancer
# [10] = test system: SK-MEL-2; assay: NCI in vitro anti-cancer activity, Melanoma; conditions: Table 29, Melanoma
# [11] = test system: M14; assay: NCI in vitro anti-cancer activity, Melanoma; conditions: Table 29, Melanoma
# [12] = test system: MALME-3M; assay: NCI in vitro anti-cancer activity, Melanoma; conditions: Table 29, Melanoma
# [13] = test system: UACC-257; assay: NCI in vitro anti-cancer activity, Melanoma; conditions: Table 29, Melanoma
# [14] = test system: SK-MEL-28; assay: NCI in vitro anti-cancer activity, Melanoma; conditions: Table 29, Melanoma
# [15] = test system: LOX IMVI; assay: NCI in vitro anti-cancer activity, Melanoma; conditions: Table 29, Melanoma
# [16] = test system: UACC-62; assay: NCI in vitro anti-cancer activity, Melanoma; conditions: Table 29, Melanoma
# [17] = test system: HT29; assay: NCI in vitro anti-cancer activity, Colon Cancer; conditions: Table 29, Colon Cancer
# [18] = test system: HCT-116; assay: NCI in vitro anti-cancer activity, Colon Cancer; conditions: Table 29, Colon Cancer
# [19] = test system: KM12; assay: NCI in vitro anti-cancer activity, Colon Cancer; conditions: Table 29, Colon Cancer
# [20] = test system: COLO 205; assay: NCI in vitro anti-cancer activity, Colon Cancer; conditions: Table 29, Colon Cancer
# [21] = test system: HCT-15; assay: NCI in vitro anti-cancer activity, Colon Cancer; conditions: Table 29, Colon Cancer
# [22] = test system: SW-620; assay: NCI in vitro anti-cancer activity, Colon Cancer; conditions: Table 29, Colon Cancer
# [23] = test system: K-562; assay: NCI in vitro anti-cancer activity; conditions: Table 29, Leukemia
# [24] = test system: SF-295; assay: NCI in vitro anti-cancer activity, CNS Cancer; conditions: Table 29, CNS Cancer
# [25] = test system: SF-268; assay: NCI in vitro anti-cancer activity, CNS Cancer; conditions: Table 29, CNS Cancer
# [26] = test system: U251; assay: NCI in vitro anti-cancer activity, CNS Cancer; conditions: Table 29, CNS Cancer
# [27] = test system: SNB-75; assay: NCI in vitro anti-cancer activity, CNS Cancer; conditions: Table 29, CNS Cancer, SNB-75
# [28] = test system: SF-539; assay: NCI in vitro anti-cancer activity, CNS Cancer; conditions: Table 29, CNS Cancer
# [29] = test system: SNB-19; assay: NCI in vitro anti-cancer activity, CNS Cancer; conditions: Table 29, CNS Cancer
# [30] = test system: OVCAR-3; assay: NCI in vitro anti-cancer activity, Ovarian Cancer; conditions: Table 29, Ovarian Cancer
# [31] = test system: OVCAR-5; assay: NCI in vitro anti-cancer activity, Ovarian Cancer; conditions: Table 29, Ovarian Cancer
# [32] = test system: OVCAR-4; assay: NCI in vitro anti-cancer activity, Ovarian Cancer; conditions: Table 29, Ovarian Cancer
# [33] = test system: IGROV1; assay: NCI in vitro anti-cancer activity, Ovarian Cancer; conditions: Table 29, Ovarian Cancer
# [34] = test system: SK-OV-3; assay: NCI in vitro anti-cancer activity, Ovarian Cancer; conditions: Table 29, Ovarian Cancer
# [35] = test system: OVCAR-8; assay: NCI in vitro anti-cancer activity, Ovarian Cancer; conditions: Table 29, Ovarian Cancer
# [36] = test system: DU-145; assay: NCI in vitro anti-cancer activity, Prostate Cancer; conditions: Table 29, Prostate Cancer
# [37] = test system: PC-3; assay: NCI in vitro anti-cancer activity, Prostate Cancer; conditions: Table 29, Prostate Cancer
# [38] = test system: TK-10; assay: NCI in vitro anti-cancer activity, Renal Cancer; conditions: Table 29, Renal Cancer
# [39] = test system: RXF 393; assay: NCI in vitro anti-cancer activity, Renal Cancer; conditions: Table 29, Renal Cancer, RXF 393
# [40] = test system: ACHN; assay: NCI in vitro anti-cancer activity, Renal Cancer; conditions: Table 29, Renal Cancer
# [41] = test system: UO-31; assay: NCI in vitro anti-cancer activity, Renal Cancer; conditions: Table 29, Renal Cancer
# [42] = test system: 786-0; assay: NCI in vitro anti-cancer activity, Renal Cancer; conditions: Table 29, Renal Cancer
# [43] = test system: CAKI-1; assay: NCI in vitro anti-cancer activity, Renal Cancer; conditions: Table 29, Renal Cancer
# [44] = test system: SN12C; assay: NCI in vitro anti-cancer activity, Renal Cancer; conditions: Table 29, Renal Cancer
# [45] = test system: SK-MEL-5; assay: NCI in vitro anti-cancer activity, Melanoma; format: cell-based; conditions: Table 29, Melanoma
# [46] = test system: T-47D; assay: NCI in vitro anti-cancer activity, Breast Cancer; conditions: Table 29, Breast Cancer
# [47] = test system: BT-549; assay: NCI in vitro anti-cancer activity, Breast Cancer; conditions: Table 29, Breast Cancer
# [48] = test system: HS 578T; assay: NCI in vitro anti-cancer activity, Breast Cancer; conditions: Table 29, Breast Cancer
# [49] = test system: MDA-N; assay: NCI in vitro anti-cancer activity, Breast Cancer; conditions: Table 29, Breast Cancer
# [50] = test system: MCF7; assay: NCI in vitro anti-cancer activity, Breast Cancer; conditions: Table 29, Breast Cancer
# [51] = test system: MDA-MB-231/ATCC; assay: NCI in vitro anti-cancer activity, Breast Cancer; conditions: Table 29, Breast Cancer
# [52] = test system: MDA-MB-435; assay: NCI in vitro anti-cancer activity, Breast Cancer; conditions: Table 29, Breast Cancer
# [53] = test system: HL-60 (TB); assay: NCI in vitro anti-cancer activity, Leukemia; conditions: Table 29, Leukemia
# [54] = test system: SR; assay: NCI in vitro anti-cancer activity, Leukemia; conditions: Table 29, Leukemia
# [55] = test system: RPMI-8226; assay: NCI in vitro anti-cancer activity, Leukemia; conditions: Table 29, Leukemia
# [56] = test system: MOLT-4; assay: NCI in vitro anti-cancer activity, Leukemia; conditions: Table 29, Leukemia
# [57] = test system: CCRF-CEM; assay: NCI in vitro anti-cancer activity, Leukemia; conditions: Table 29, Leukemia, CCRF-CEM
# [58] = test system: A498; assay: NCI in vitro anti-cancer activity, renal cancer; conditions: Table 29, Renal Cancer
structure (smiles),measurement,setting,value
COc1cccc(CCc2c[nH]c3nc(N)nc(C)c23)c1,IC50,"[1]; read-out: Inhibitory Concentrations (IC50) RL DHFR, Table 26",3.7 µM
Nc1nc(N)c2c(CNc3ccc(O)cc3)c[nH]c2n1,IC50,"[1]; read-out: RL DHFR IC50, Table 7",4.2 µM
COc1ccc(CCc2c[nH]c3nc(N)nc(C)c23)cc1,GI50,[2],74.4 µM
same,GI50,[3],60.2 µM
same,% inhibition RL DHFR,[1]; @ 11 μM,49% @
same,GI50,[4],34.4 µM
same,GI50,[5],24.1 µM
same,GI50,[6],54.3 µM
same,GI50,[7],> 100 µM
same,GI50,[8],> 100 µM
same,GI50,[9],70.9 µM
same,GI50,[10],> 100 µM
same,GI50,[11],> 100 µM
same,GI50,[12],> 100 µM
same,GI50,[13],> 100 µM
same,GI50,[14],> 100 µM
same,GI50,[15],73.1 µM
same,GI50,[16],> 100 µM
same,GI50,[17],> 100 µM
same,GI50,[18],> 100 µM
same,GI50,[19],> 100 µM
same,GI50,[20],> 100 µM
same,GI50,[21],57.9 µM
same,GI50,[22],> 100 µM
same,GI50,[23],33.8 µM
same,GI50,[24],49.7 µM
same,GI50,[25],37.1 µM
same,GI50,[26],30 µM
same,GI50,[27],24.2 µM
same,GI50,[28],21.8 µM
same,GI50,[29],37.4 µM
same,GI50,[30],> 100 µM
same,GI50,[31],> 100 µM
same,GI50,[32],> 100 µM
same,GI50,[33],> 100 µM
same,GI50,[34],> 100 µM
same,GI50,[35],64.4 µM
same,GI50,[36],> 100 µM
same,GI50,[37],> 100 µM
same,GI50,[38],> 100 µM
same,GI50,[39],25.6 µM
same,GI50,[40],> 100 µM
same,GI50,[41],48.1 µM
same,GI50,[42],44.5 µM
same,GI50,[43],30.2 µM
same,GI50,[44],> 100 µM
same,GI50,[45],> 100 µM
same,GI50,[46],66.4 µM
same,GI50,[47],52.1 µM
same,GI50,[48],80.7 µM
same,GI50,[49],75.5 µM
same,GI50,[50],61.9 µM
same,GI50,[51],91 µM
same,GI50,[52],59.1 µM
same,GI50,[53],> 100 µM
same,GI50,[54],31.6 µM
same,GI50,[55],71.6 µM
same,GI50,[56],17.3 µM
same,GI50,[57],> 100 µM
same,GI50,[58],52.8 µM
Nc1nc(N)c2c(-c3ccccc3)coc2n1,IC50,"[1]; read-out: RL DHFR IC50, Table 16",> 27.9 µM
